Data published in patent publication US8802688B2, “Substituted acetyl-coa carboxylase inhibitors” (Pfizer Inc., priority 2011, dated 2014).

The chains behind the UniProt entries cited, without tags or fusion partners.
UniProt O00763, whole entry V2141I: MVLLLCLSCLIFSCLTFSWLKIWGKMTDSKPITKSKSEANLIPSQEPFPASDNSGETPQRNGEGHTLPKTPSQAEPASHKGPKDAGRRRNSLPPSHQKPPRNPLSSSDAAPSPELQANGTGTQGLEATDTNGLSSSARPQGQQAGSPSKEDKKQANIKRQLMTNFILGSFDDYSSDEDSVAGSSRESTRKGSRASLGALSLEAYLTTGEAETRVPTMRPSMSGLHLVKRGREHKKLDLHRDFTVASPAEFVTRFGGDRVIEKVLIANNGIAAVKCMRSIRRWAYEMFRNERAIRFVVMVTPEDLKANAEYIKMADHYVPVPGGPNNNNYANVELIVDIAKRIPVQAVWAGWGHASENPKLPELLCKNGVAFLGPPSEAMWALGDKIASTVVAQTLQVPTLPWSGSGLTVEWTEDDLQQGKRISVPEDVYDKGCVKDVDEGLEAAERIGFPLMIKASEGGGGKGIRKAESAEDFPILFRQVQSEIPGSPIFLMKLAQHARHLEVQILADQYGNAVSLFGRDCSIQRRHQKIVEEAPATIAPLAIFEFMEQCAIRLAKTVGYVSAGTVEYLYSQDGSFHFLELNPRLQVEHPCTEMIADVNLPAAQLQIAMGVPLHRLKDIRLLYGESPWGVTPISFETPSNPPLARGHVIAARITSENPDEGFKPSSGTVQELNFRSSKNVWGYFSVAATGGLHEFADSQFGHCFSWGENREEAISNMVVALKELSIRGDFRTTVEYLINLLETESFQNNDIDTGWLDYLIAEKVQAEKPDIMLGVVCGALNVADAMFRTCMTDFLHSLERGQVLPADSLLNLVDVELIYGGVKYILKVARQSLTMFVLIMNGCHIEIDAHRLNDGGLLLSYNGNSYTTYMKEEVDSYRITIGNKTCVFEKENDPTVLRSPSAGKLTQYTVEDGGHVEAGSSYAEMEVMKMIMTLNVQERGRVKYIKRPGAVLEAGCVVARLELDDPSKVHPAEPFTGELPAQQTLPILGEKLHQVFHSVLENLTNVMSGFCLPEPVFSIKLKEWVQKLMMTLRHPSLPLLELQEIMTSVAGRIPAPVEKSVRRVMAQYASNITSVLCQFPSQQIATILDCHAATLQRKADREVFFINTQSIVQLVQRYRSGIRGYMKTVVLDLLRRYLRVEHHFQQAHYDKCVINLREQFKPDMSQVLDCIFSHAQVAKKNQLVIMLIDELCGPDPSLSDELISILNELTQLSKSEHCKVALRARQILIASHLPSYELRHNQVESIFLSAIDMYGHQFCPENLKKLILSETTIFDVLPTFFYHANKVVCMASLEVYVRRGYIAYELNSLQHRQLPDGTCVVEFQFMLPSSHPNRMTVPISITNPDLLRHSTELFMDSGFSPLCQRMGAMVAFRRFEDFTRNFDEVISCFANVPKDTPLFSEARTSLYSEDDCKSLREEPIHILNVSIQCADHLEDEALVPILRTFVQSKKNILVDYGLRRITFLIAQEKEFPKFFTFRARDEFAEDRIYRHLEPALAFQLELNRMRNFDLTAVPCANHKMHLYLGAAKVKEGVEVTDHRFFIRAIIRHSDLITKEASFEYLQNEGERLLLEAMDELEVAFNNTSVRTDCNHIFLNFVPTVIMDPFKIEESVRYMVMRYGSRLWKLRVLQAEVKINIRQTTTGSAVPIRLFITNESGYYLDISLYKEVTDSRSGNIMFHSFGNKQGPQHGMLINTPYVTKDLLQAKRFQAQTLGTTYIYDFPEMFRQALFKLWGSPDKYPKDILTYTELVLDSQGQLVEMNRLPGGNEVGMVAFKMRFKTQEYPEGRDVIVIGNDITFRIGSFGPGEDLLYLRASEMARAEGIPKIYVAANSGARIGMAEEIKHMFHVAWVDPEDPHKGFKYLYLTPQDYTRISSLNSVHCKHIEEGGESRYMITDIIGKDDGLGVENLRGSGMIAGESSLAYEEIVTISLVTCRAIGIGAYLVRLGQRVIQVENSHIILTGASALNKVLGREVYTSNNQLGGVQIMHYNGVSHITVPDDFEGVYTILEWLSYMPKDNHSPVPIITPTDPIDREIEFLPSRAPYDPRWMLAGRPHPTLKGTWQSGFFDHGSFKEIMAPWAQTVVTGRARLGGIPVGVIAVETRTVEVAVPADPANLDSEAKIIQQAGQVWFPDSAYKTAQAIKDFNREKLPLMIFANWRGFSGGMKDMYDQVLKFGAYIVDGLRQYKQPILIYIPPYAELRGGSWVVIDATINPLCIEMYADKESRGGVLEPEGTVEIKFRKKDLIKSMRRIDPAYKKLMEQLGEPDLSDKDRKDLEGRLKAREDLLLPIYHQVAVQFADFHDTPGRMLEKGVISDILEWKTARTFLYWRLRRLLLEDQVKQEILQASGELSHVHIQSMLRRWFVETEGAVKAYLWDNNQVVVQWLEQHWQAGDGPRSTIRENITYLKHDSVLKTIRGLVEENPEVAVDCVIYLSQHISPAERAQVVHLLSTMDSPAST

Legend:
[1] = target: recombinant human ACC1 (rhACC1) (Homo sapiens, UniProt Q13085, DEL44-44); assay: recombinant hACC1 Transcreener ADP detection FP assay; conditions: read-out: hACC1 IC50, 50 μM ATP, 30 μM acetyl-CoA
[2] = target: recombinant human ACC2 (rhACC2) (Homo sapiens, UniProt O00763, V2141I); assay: recombinant hACC2 Transcreener ADP detection FP assay; conditions: read-out: hACC2 IC50, 50 μM ATP, 30 μM acetyl-CoA

IC50 [1] | IC50 [2] | SMILES
3.8 nM | 1.3 nM | CC(C)(C)n1cc2c(n1)C(=O)CC1(CCN(C(=O)c3ccc4[nH]nc(C(N)=O)c4c3)CC1)C2
6.5 nM | 1.3 nM | CC(C)(C)n1cc2c(n1)C(=O)CC1(CCN(C(=O)c3ccc4c(C(N)=O)c[nH]c4c3)CC1)C2
